Experimental findings from ChEMBL document CHEMBL6182920, “The Discovery of C7-Substituted Norbornyl Bisamides as RXFP1 Small Molecule Agonists” (J Med Chem, 2025) are described below.

The structures appear in SMILES notation. Active and inactive are the calls of the source. The rule behind the calls is not given here.

The target of one experiment is T1, Relaxin receptor 1 (Mus musculus) (UniProt Q6R6I7).
T1 sequence (whole entry): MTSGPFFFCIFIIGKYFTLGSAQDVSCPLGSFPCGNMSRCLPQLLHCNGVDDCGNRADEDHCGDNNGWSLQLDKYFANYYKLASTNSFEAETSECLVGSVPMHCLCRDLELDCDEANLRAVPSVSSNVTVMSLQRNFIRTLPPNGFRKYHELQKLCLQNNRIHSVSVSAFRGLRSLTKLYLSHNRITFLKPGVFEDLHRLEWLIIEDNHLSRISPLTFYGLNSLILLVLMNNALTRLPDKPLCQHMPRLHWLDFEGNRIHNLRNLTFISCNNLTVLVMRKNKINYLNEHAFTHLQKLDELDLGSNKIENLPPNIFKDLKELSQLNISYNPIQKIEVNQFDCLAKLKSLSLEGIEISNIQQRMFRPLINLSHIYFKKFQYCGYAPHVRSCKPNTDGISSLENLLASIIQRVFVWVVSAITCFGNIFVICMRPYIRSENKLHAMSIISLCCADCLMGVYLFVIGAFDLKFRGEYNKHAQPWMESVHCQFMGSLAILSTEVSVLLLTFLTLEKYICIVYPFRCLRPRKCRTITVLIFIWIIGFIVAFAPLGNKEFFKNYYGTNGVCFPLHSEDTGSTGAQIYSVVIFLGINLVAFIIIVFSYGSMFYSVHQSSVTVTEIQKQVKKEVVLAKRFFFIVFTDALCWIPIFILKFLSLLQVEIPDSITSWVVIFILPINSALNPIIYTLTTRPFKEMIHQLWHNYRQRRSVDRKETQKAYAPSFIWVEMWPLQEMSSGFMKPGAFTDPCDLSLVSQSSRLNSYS
As to the kind of experiment: Agonist activity at mouse RXFP1 stably expressed in HEK293 cells assessed as intracellular cAMP accumulation by measuring maximal efficacy incubated for 30 mins by HTRF assay relative to control. The experiment is classed as functional, cell-based.
Conditions: not given
For orientation: cAMP levels reflect the balance of adenylyl cyclase and phosphodiesterase activity.
One may read the Emax as the greatest response seen or fitted, relative to the assay's reference. Turning to `COc1ccc(-c2cccnc2)cc1C(=O)N[C@H]1[C@@H](C(=O)Nc2ccc(F)c(C(F)(F)F)c2)[C@H]2CC[C@@H]1C2=C(C)C`, the Emax was 30%.

As for `COc1ccc(-c2ccncc2)cc1C(=O)N[C@H]1[C@@H](C(=O)Nc2ccc(F)c(C(F)(F)F)c2)[C@H]2CC[C@@H]1C2=C(C)C`, the Emax came out at 7%.

As to `COc1ccc(-c2ccccc2C(=O)O)cc1C(=O)N[C@H]1[C@@H](C(=O)Nc2ccc(F)c(C(F)(F)F)c2)[C@H]2CC[C@@H]1C2=C(C)C`, the Emax came out at 3%.

As for `COC(=O)c1ccc(F)c(-c2ccc(OC)c(C(=O)N[C@H]3[C@@H](C(=O)Nc4ccc(F)c(C(F)(F)F)c4)[C@H]4CC[C@@H]3C4=C(C)C)c2)c1`, the Emax turned out to be 22%.

Staying with this experiment, now noted: filed as agonist.
For `COc1ccc(-c2cccc(C(=O)O)c2)cc1C(=O)N[C@H]1[C@@H](C(=O)Nc2ccc(F)c(C(F)(F)F)c2)[C@H]2CC[C@@H]1C2=C(C)C`, the Emax turned out to be 110%.

For the compound `COc1ccc(-c2cc(C(O)C(=O)O)ccc2F)cc1C(=O)N[C@H]1[C@@H](C(=O)Nc2ccc(F)c(C(F)(F)F)c2)[C@H]2CC[C@@H]1/C2=C\c1cnoc1` (some centres not stated), the maximum response (Emax) turned out to be 78%.

Consider `COc1ccc(-c2cc(C(=O)O)ccc2C)cc1C(=O)N[C@H]1[C@@H](C(=O)Nc2ccc(F)c(C(F)(F)F)c2)[C@H]2CC[C@@H]1C2=C(C)C`, for which the maximum response (Emax) stood at 110%.

With `COc1ccc(-c2cc(C(=O)O)ccc2F)cc1C(=O)N[C@H]1[C@@H](C(=O)Nc2ccc(F)c(C(F)(F)F)c2)[C@H]2CC[C@@H]1/C2=C\C1CC1`, the Emax worked out at 140%.

Take `COc1ccc(-c2cc(CC(=O)O)ccc2F)cc1C(=O)N[C@H]1[C@@H](C(=O)Nc2ccc(F)c(C(F)(F)F)c2)[C@H]2CC[C@@H]1/C2=C\c1cnoc1`: the Emax came to 57%.

On to `COc1ccc(-c2cc(C(=O)NS(C)(=O)=O)ccc2F)cc1C(=O)N[C@H]1[C@@H](C(=O)Nc2ccc(F)c(C(F)(F)F)c2)[C@H]2CC[C@@H]1/C2=C\c1cnoc1`, for which the Emax is 53%.

As for `COc1ccc(-c2cc(O)ccc2F)cc1C(=O)N[C@H]1[C@@H](C(=O)Nc2ccc(F)c(C(F)(F)F)c2)[C@H]2CC[C@@H]1/C2=C\c1cnoc1`, the Emax is 74%.

As to `COc1ccc(-c2cc(C(=O)O)ccc2F)cc1C(=O)N[C@H]1[C@@H](C(=O)Nc2ccc(F)c(C(F)(F)F)c2)[C@H]2CC[C@@H]1/C2=C\c1ccccc1`, the Emax amounted to 94%.

As to `COc1ccc(-c2cncn2C)cc1C(=O)N[C@H]1[C@@H](C(=O)Nc2ccc(F)c(C(F)(F)F)c2)[C@H]2CC[C@@H]1C2=C(C)C`, the Emax is 40%.

With `COc1ccc(-c2cc(C(=O)O)ccc2OC)cc1C(=O)N[C@H]1[C@@H](C(=O)Nc2ccc(F)c(C(F)(F)F)c2)[C@H]2CC[C@@H]1C2=C(C)C`, the Emax was found to be 90%.

With `CNC(=O)OC(C(=O)O)c1ccc(F)c(-c2ccc(OC)c(C(=O)N[C@H]3[C@@H](C(=O)Nc4ccc(F)c(C(F)(F)F)c4)[C@H]4CC[C@@H]3/C4=C\C3CC3)c2)c1` (stereo in doubt; 39), the Emax came out at 150%.

As to `CNC(=O)OC(C(=O)O)c1ccc(F)c(-c2ccc(OC)c(C(=O)N[C@H]3[C@@H](C(=O)Nc4ccc(F)c(C(F)(F)F)c4)[C@H]4CC[C@@H]3/C4=C\c3cnoc3)c2)c1` (some centres not stated), the Emax amounted to 73%.

`COc1ccc(-c2cc(C(=O)O)ccc2F)cc1C(=O)N[C@H]1[C@@H](C(=O)Nc2ccc(F)c(C(F)(F)F)c2)[C@H]2CC[C@@H]1C2=C(C)C`: the Emax turned out to be 110%.

For the compound `COc1ccc(-c2cc(C(N)=O)ccc2F)cc1C(=O)N[C@H]1[C@@H](C(=O)Nc2ccc(F)c(C(F)(F)F)c2)[C@H]2CC[C@@H]1/C2=C\c1cnoc1`, the Emax was 86%.

Consider `CNC(=O)OC(C(=O)O)c1ccc(F)c(-c2ccc(OC)c(C(=O)N[C@H]3[C@@H](C(=O)Nc4ccc(F)c(C(F)(F)F)c4)[C@H]4CC[C@@H]3/C4=C\C3CC3)c2)c1` (stereo in doubt; 40), for which the Emax was 150%.

For the compound `COc1ccc(-c2cncnc2)cc1C(=O)N[C@H]1[C@@H](C(=O)Nc2ccc(F)c(C(F)(F)F)c2)[C@H]2CC[C@@H]1C2=C(C)C`, the Emax came to 46%.

Another experiment deals with T1, Relaxin receptor 1 (Mus musculus). As to the kind of experiment: Partial agonist activity at mouse RXFP1 stably expressed in HEK293 cells assessed as intracellular cAMP accumulation by measuring maximal efficacy incubated for 30 mins by HTRF assay relative to control. It is filed as functional, cell-based. Particulars: filed as partial agonist.
On to `COc1ccc(-c2cc(C(=O)O)ccc2F)cc1C(=O)N[C@H]1[C@@H](C(=O)Nc2ccc(F)c(C(F)(F)F)c2)[C@H]2CC[C@@H]1/C2=C\c1cnoc1`, for which the Emax was determined as 64%.

With `COc1ccc(-c2ccc(C(=O)O)cc2)cc1C(=O)N[C@H]1[C@@H](C(=O)Nc2ccc(F)c(C(F)(F)F)c2)[C@H]2CC[C@@H]1C2=C(C)C`, the Emax was 52%.

For `COc1ccc(-c2cc(C(=O)O)ccc2F)cc1C(=O)N[C@H]1[C@@H](C(=O)Nc2ccc(F)c(C(F)(F)F)c2)[C@H]2CC[C@@H]1/C2=C\C(F)(F)F`, the Emax stood at 77%.

The next experiment has as its target T2, Relaxin receptor 1 (Rattus norvegicus) (UniProt Q6R6I6).
T2 sequence (whole entry): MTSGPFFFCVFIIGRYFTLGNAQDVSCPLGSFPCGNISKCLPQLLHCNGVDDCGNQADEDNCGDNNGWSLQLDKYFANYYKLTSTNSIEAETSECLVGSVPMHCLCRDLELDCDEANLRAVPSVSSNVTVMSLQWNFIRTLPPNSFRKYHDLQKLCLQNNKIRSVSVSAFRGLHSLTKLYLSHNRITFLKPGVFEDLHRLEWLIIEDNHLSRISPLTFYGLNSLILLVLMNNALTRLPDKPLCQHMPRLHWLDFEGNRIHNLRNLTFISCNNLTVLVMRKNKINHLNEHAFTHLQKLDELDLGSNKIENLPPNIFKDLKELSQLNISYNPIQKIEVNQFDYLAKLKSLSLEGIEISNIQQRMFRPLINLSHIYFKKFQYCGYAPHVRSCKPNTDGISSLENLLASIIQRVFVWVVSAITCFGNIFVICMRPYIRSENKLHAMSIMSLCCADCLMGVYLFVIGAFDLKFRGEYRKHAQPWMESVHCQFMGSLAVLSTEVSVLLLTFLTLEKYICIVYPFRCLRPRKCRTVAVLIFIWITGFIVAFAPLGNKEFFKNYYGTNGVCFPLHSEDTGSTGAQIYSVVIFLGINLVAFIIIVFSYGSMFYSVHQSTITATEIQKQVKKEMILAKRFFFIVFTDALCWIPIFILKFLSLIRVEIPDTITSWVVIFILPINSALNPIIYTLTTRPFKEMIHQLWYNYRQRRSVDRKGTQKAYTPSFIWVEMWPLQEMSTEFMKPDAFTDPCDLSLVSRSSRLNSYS
The experiment can be described thus: Agonist activity at rat RXFP1 stably expressed in HEK293 cells at 10 uM incubated for 30 mins by HTRF assay. The experiment is classed as cell-based.
Conditions: not given
(In general: Time-resolved FRET reads energy transfer from a long-lived donor to a nearby acceptor.)
As to `COc1cc(F)c(F)cc1C(=O)N[C@H]1[C@@H](C(=O)Nc2ccc(F)c(C(F)(F)F)c2)[C@@H]2CC[C@@H]1C2C(C)C` (stereo in doubt), the result was inactive.

Consider `COc1cc(F)c(F)cc1C(=O)N[C@@H]1[C@@H]2CC[C@@H](C2)[C@@H]1C(=O)Nc1ccc(F)c(C(F)(F)F)c1`, for which the result was inactive.

With `COc1cc(F)c(F)cc1C(=O)N[C@H]1[C@@H](C(=O)Nc2ccc(F)c(C(F)(F)F)c2)[C@H]2CC[C@@H]1/C2=C\c1ccccc1`, the result was inactive.

For `C=C1[C@H]2CC[C@@H]1[C@H](C(=O)Nc1ccc(F)c(C(F)(F)F)c1)[C@@H]2NC(=O)c1cc(F)c(F)cc1OC`, the outcome was inactive.

`COc1cc(F)c(F)cc1C(=O)N[C@H]1[C@@H](C(=O)Nc2ccc(F)c(C(F)(F)F)c2)[C@@H]2CC[C@@H]1C2C(C)C` (single isomer, unassigned; isomer 2): the outcome was inactive.

As for `COc1cc(F)c(F)cc1C(=O)N[C@H]1[C@@H](C(=O)Nc2ccc(F)c(C(F)(F)F)c2)[C@H]2CC[C@@H]1C2=CC1CC1`, the result was inactive.

With `COc1cc(F)c(F)cc1C(=O)N[C@H]1[C@@H](C(=O)Nc2ccc(F)c(C(F)(F)F)c2)[C@H]2CC[C@@H]1/C2=C\C(F)(F)F`, the result was inactive.

For the compound `COc1cc(F)c(F)cc1C(=O)N[C@H]1[C@@H](C(=O)Nc2ccc(F)c(C(F)(F)F)c2)[C@H]2CC[C@@H]1/C2=C/c1ccccc1`, the outcome was inactive.

Consider `COc1cc(F)c(F)cc1C(=O)N[C@H]1[C@@H](C(=O)Nc2ccc(F)c(C(F)(F)F)c2)[C@H]2CC[C@@H]1/C2=C\c1cocn1`, for which the result was inactive.

For `COc1cc(F)c(F)cc1C(=O)N[C@H]1[C@@H](C(=O)Nc2ccc(F)c(C(F)(F)F)c2)[C@H]2CC[C@@H]1/C2=C\c1c(Cl)cccc1Cl`, the result was inactive.

For the compound `COc1cc(F)c(F)cc1C(=O)N[C@H]1[C@@H](C(=O)Nc2ccc(F)c(C(F)(F)F)c2)[C@H]2CC[C@@H]1C2=C(C)C`, the result was inactive.

Turning to `COc1cc(F)c(F)cc1C(=O)N[C@H]1[C@@H](C(=O)Nc2ccc(F)c(C(F)(F)F)c2)[C@H]2CC[C@@H]1/C2=C1/C=Cc2ccccc21`, the outcome was inactive.

The next experiment has as its target T2, Relaxin receptor 1 (Rattus norvegicus). The experiment can be described thus: Agonist activity at rat RXFP1 stably expressed in HEK293 cells assessed as intracellular cAMP accumulation by measuring maximal efficacy incubated for 30 mins by HTRF assay. It is filed as cell-based. As to conditions: filed as agonist.
Consider `COc1ccc(-c2cc(C(O)C(=O)O)ccc2F)cc1C(=O)N[C@H]1[C@@H](C(=O)Nc2ccc(F)c(C(F)(F)F)c2)[C@H]2CC[C@@H]1/C2=C\c1cnoc1` (some centres not stated), for which the Emax was 94%.

In the case of `COc1ccc(-c2cc(C(=O)O)ccc2F)cc1C(=O)N[C@H]1[C@@H](C(=O)Nc2ccc(F)c(C(F)(F)F)c2)[C@H]2CC[C@@H]1/C2=C\c1cnoc1`, the Emax is 71%.

As to `COc1ccc(-c2cc(CC(=O)O)ccc2F)cc1C(=O)N[C@H]1[C@@H](C(=O)Nc2ccc(F)c(C(F)(F)F)c2)[C@H]2CC[C@@H]1/C2=C\c1cnoc1`, the Emax is 60%.

With `COc1ccc(-c2cc(C(=O)NS(C)(=O)=O)ccc2F)cc1C(=O)N[C@H]1[C@@H](C(=O)Nc2ccc(F)c(C(F)(F)F)c2)[C@H]2CC[C@@H]1/C2=C\c1cnoc1`, the Emax worked out at 64%.

On to `CNC(=O)OC(C(=O)O)c1ccc(F)c(-c2ccc(OC)c(C(=O)N[C@H]3[C@@H](C(=O)Nc4ccc(F)c(C(F)(F)F)c4)[C@H]4CC[C@@H]3/C4=C\C3CC3)c2)c1` (stereo in doubt; 39), for which the Emax was 190%.

With `CNC(=O)OC(C(=O)O)c1ccc(F)c(-c2ccc(OC)c(C(=O)N[C@H]3[C@@H](C(=O)Nc4ccc(F)c(C(F)(F)F)c4)[C@H]4CC[C@@H]3/C4=C\c3cnoc3)c2)c1` (some centres not stated), the Emax stood at 100%.

Take `CNC(=O)OC(C(=O)O)c1ccc(F)c(-c2ccc(OC)c(C(=O)N[C@H]3[C@@H](C(=O)Nc4ccc(F)c(C(F)(F)F)c4)[C@H]4CC[C@@H]3/C4=C\C3CC3)c2)c1` (stereo in doubt; 40): the Emax is 170%.
